# Antibody variant affinities, Ab-14 heavy chain, assay B

Data: MIT Lincoln Laboratory AlphaSeq set, Li et al. 2023, doi:10.1038/s41467-023-39022-2, as distributed in FLAb.

Binding partner: SARS-CoV-2 spike HR2 peptide, sequence PDVDLGDISGINAS.

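Designed CDR sequences, proposed from the first random library and measured here. Group labels follow the data file (Ctrl: baseline library sampled from a position-specific scoring matrix, with some repeated check sequences; Rand: our label for a block that the file lists under HC and that is probably the random mutants of the ten best first-round binders; En: ensemble of fine-tuned language models; GP: Gaussian process model; GPLM: also part of the Gaussian process libraries; HC: hill climbing; Gen: genetic algorithm; Gibbs: Gibbs sampling; a sequence that several methods proposed may carry one label only). The assay is AlphaSeq: two haploid yeast populations carry antibody and antigen on their surface. Mating (16 h, 30 °C) was followed by selection of diploids and sequencing of their barcodes. The ratio of observed to expected reads was calibrated, replicate by replicate, on BCL2-family standards whose Kd was known from biolayer interferometry. Mating was done six times.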

Each scFv is VH, a (GGGGS)3 linker, VL, as in the parent Ab-14, and differs from it in the CDRs of the heavy chain only.
VH: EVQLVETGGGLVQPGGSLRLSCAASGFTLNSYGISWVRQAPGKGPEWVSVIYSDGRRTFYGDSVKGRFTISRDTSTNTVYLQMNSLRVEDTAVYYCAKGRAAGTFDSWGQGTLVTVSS
VL: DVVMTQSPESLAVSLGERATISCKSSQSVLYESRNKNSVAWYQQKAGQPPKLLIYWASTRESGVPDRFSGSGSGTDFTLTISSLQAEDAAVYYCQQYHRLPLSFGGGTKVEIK

Each variant is given by its three heavy chain CDRs, as the data file delimits them; those of the parent are GFTLNSYGIS, VIYSDGRRTFYGDSVK, GRAAGTFDS. Values are apparent Kd, the geometric mean of the replicates that gave a signal; lower means stronger binding. A pair that was not seen in any replicate is written "no signal"; this usually means weak binding, but a binder can also be missed. Order: sorted from the lowest average up, undetected variants last.

CDR-H1,CDR-H2,CDR-H3,group,apparent Kd,seen in
GFNLDEYGIS,VIYADGRRTAYSDNVK,GEAAGTFDI,En_HC,77 pM,6 of 6
GQTLNEYGIS,VIYADGERTFYGDSVK,GRAAGTFDS,Ctrl,170 pM,6 of 6
GFDLSEYGIS,VIYADGRRTFYADSVK,GEVAGTFDV,En_HC,330 pM,6 of 6
GFDLNEYGIS,VIYADGRRTAYADSVK,GKIAGTFNV,En_HC,340 pM,6 of 6
GFDLDEYGIS,VIYADGQRTAYADSVK,GTNAGTFDV,En_Gen,340 pM,6 of 6
GFDINEYGIS,VIYADGRRTAYADSVK,GEVAGTFDV,En_HC,340 pM,6 of 6
GFDLNEYGIS,VIYADGKRTFYADSVK,GHVAGTFVS,En_HC,350 pM,6 of 6
GFDLNEYGIS,VIYSDGRRTFYGDSVK,GRTAGTFDT,GP_Gen,370 pM,6 of 6
GFDLEEYGIS,VIYADGERVNYTEAVK,GQFSGVDMD,En_Gibbs,450 pM,6 of 6
GFDLNEYGIS,VIYADGKRTQYIDSVK,GEAAGTFDL,En_HC,460 pM,6 of 6
GFDLNEYGIS,VIYADGRRTFYADSVK,GQVAGTFTL,En_HC,490 pM,6 of 6
GFDLDEYGIS,VIYADGRRTAYIDSVK,GETAGTFDV,En_HC,510 pM,6 of 6
GFDINEYGIS,VIYADGRRTAYADSVK,GEQAGTFDV,En_HC,550 pM,6 of 6
GFDLNEYGIS,VIYADGKRTFYADSVK,GKNAGTFLV,En_HC,580 pM,6 of 6
GFTLNSYGIS,VIYADGRRTFYGDSVK,GEAAGTFDF,GPLM_Gen,810 pM,6 of 6
GFDLNSYGIS,VIYSDGKRTFYGDDVK,GRQAGTFDS,GP_Gibbs,870 pM,6 of 6
GFDLNSYGIS,VIYSDGRRTFYQDSVK,GHAAGTFDS,GP_Gen,990 pM,6 of 6
GFTLNSYGCS,VIYSDGLRTSYGDSVK,GRAAGTFDS,Ctrl,1.1 nM,3 of 6
GFELNEYGIS,VIYSDGRRTFYGDSVK,GRAAGTFDV,GP_Gibbs,1.2 nM,6 of 6
GFTLNSYGIS,VIYADGRRTFYGDQVK,GEAAGTFDS,GPLM_Gen,1.3 nM,6 of 6
GFELNEYGIS,VIYSDGRRTFYGDSVK,GHAAGTFDL,GP_Gen,1.3 nM,6 of 6
GFDLNSYGIS,VIYSDGKRTFYGDSVK,GRAAGTFDV,GP_Gen,1.6 nM,6 of 6
GFDLNEYGIS,VIYADGMRTFYSDSVK,GTNGGTFDM,En_HC,1.9 nM,6 of 6
GFELNSYGIS,VIYSDGRRTFYVDSVK,GREAGTFDT,GP_Gen,2.6 nM,6 of 6
GFSLNSYGIS,VIYSDGRRTFYGDSVK,GEAAGTFDR,GPLM_Gen,3.2 nM,6 of 6
GFTLNSYGIS,VIYADGRRTFYGDSVK,GEAAGTFDL,GPLM_Gen,3.6 nM,6 of 6
GFDLNSYGIS,VIYSDGRRTFYGDSVA,GRVAGTFDS,Ctrl,4.0 nM,6 of 6
GFNLNSYGIS,VIYSDGRRTFYADAVK,GKTAGTFDS,GP_Gibbs,4.2 nM,6 of 6
GFELNSYGIS,VIYSDGRRTFYHDSVK,GKTAGTFDS,GP_Gen,4.5 nM,6 of 6
GFDLNSFGIS,VIYSDGRRTFYADSVK,GDAAGTFDS,Ctrl,4.9 nM,6 of 6
GFELNSYGIS,VIYSDGRRTFYQDKVK,GRTAGTFDS,GP_Gen,5.7 nM,5 of 6
GFTLNSYGIS,VIYSDGRRTFYGDSFK,GREAGTFDS,Ctrl,6.6 nM,6 of 6
GFELNSYGIS,VIYSDGRRTFYVDSVK,GQAAGTFDV,GP_Gibbs,7.5 nM,6 of 6
GFDLNEYGIS,VIYADGLRTFYTDSVK,GEFAGTFDV,En_HC,8.8 nM,6 of 6
GFSLNSYGIS,VIYSDGRRTFYSDQVK,GRQAGTFDS,GP_Gibbs,12 nM,6 of 6
GFTLNSYGIS,VIYSDGRRTFYMDSVK,GRLAGTFDS,Ctrl,17 nM,4 of 6
GFELNSYGIS,VIYSDGRRTAYCDSVK,GRAAGTFDS,GP_Gen,19 nM,6 of 6
GFTLESYGIS,VIYSDGRRTFYGDSVK,GQVAGTFDS,GPLM_Gibbs,19 nM,6 of 6
RFTLDEYGIS,VIYSDGRRTFYGDSVK,GRIAGTFDS,Ctrl,20 nM,4 of 6
GFTLNEYGIS,VIYSDGRRAFYGDSVK,GLAAGTFDS,Ctrl,26 nM,6 of 6
YFTLNEYGIS,VIYSDGRRTFYDDSVK,GRNAGTFDS,GP_HC,27 nM,5 of 6
GFTLNSYGIS,VIYSDGYRTFYGDSVK,GEAAGTFDS,Ctrl,82 nM,3 of 6
GFDLDEYGVS,VIYADGERKFYADKVK,GTHGETRDI,En_Gibbs,110 nM,2 of 6
GFTLNSYGIS,VIYSDGRRTFYNDSVK,GRAAGTFDP,Ctrl,150 nM,1 of 6
GFDLESYGIS,VIYADGMRVSYTNNVK,GQNVMISTG,En_Gibbs,290 nM,1 of 6
KFDLEAYGIS,VIYADGVRAAYVDKVK,GQTGGMFDM,En_Gibbs,380 nM,2 of 6
GFGLDEYGIS,VIYADGMRAWYATNVK,GYQAGVFST,En_Gibbs,430 nM,3 of 6
GFTLNSYGIS,VIYSDGRRTFYGNDVK,GPAAGTFDS,Ctrl,3.2 µM,2 of 6
GFTLNEYGIS,VIYSDGRRTFYGDSVK,GNAAGFFDS,Ctrl,no signal,0 of 6
GFNLDEYGIS,VIYADGMRTFYIDKAK,GNAGIVFEM,En_Gibbs,no signal,0 of 6
GFTLNDYGIS,VIYSDGRRTFYSDSVK,GRAAGHFDS,GPLM_HC,no signal,0 of 6
GFDINEYGIS,VIYADGMRRAYSQSVK,GHGEVLSLD,En_Gibbs,no signal,0 of 6
GFTLNQHGIS,VIYSDGRRTFYSDIVK,GRAAGFFDS,Rand,no signal,0 of 6
GFTLNQYGIS,VIYSDGRRTFYADSVK,GRAKGFFDS,Rand,no signal,0 of 6
GLTLGDYGIS,VIYSDGRRQAYGDSVR,GRAAGTFDS,Ctrl,no signal,0 of 6
GFELNDYGIS,VIYSDGRRTFYGDSVK,GRQAGTFDT,GP_Gen,no signal,0 of 6
GFTLLSYGIS,VIYSDGRRTFYGDQVK,GRHAGTFDS,Ctrl,no signal,0 of 6
GFTLNSYGIS,VIYSDGRRTFYADFVK,GWAAGTKDS,Ctrl,no signal,0 of 6
GFTLDSYGIS,VIYSDGRRTFYGDSVK,GTAAGTVDS,Ctrl,no signal,0 of 6
GFQLNEYGIS,VIYSDGRRTFYGDSVK,GSAAGTFDL,GP_Gibbs,no signal,0 of 6
GFTLNDYGIS,VIYHDRRRVQYIDSVK,GRAAGTFDS,Rand,no signal,0 of 6
GKTLDEYGIS,VIYADGMRSMYADSVK,GGIDGWTFI,En_Gibbs,no signal,0 of 6
GFDLNEYGIS,VIYADGIRTAYVDKVK,SRDGIVILF,En_Gibbs,no signal,0 of 6
GESLDEYGIS,VIYADGQRVKYSNNVK,GLHFGVFDM,En_Gibbs,no signal,0 of 6
GFQLDEYGIS,VIYADGMRTAYSDSFK,GVVTTKMGI,En_Gibbs,no signal,0 of 6
GFTLNDYGIS,VIYSDGRRTFYADQVK,GRAAGLFDS,Ctrl,no signal,0 of 6

A selection of 7 entries from above:

CDR-H1,CDR-H2,CDR-H3,group,apparent Kd,seen in
GFNLNSYGIS,VIYSDGRRTFYADAVK,GKTAGTFDS,GP_Gibbs,4.2 nM,6 of 6
GFELNEYGIS,VIYSDGRRTFYGDSVK,GRAAGTFDV,GP_Gibbs,1.2 nM,6 of 6
GFTLDSYGIS,VIYSDGRRTFYGDSVK,GTAAGTVDS,Ctrl,no signal,0 of 6
GFTLNDYGIS,VIYSDGRRTFYSDSVK,GRAAGHFDS,GPLM_HC,no signal,0 of 6
GFTLNSYGIS,VIYADGRRTFYGDSVK,GEAAGTFDL,GPLM_Gen,3.6 nM,6 of 6
GFDLNSYGIS,VIYSDGKRTFYGDSVK,GRAAGTFDV,GP_Gen,1.6 nM,6 of 6
GFNLDEYGIS,VIYADGMRTFYIDKAK,GNAGIVFEM,En_Gibbs,no signal,0 of 6

In the paper, a design with two or fewer of six values counts as a poor binder. Values of this round are not directly comparable with the first-round values of the same sequences. As a blank, each scFv also met three strains without target: over all heavy chain designs, 1% of these pairings were detected, typically at 120 nM and seldom below 7.0 nM.